Experiments:
[1] = system: Monocotyledonous and dicotyledonous weed; assay: Post-emergence test on weeds (greenhouse, spray tower); conditions: after 3 weeks of cultivation in a greenhouse, fresh weight control rate
From the text: (§1) The criteria for activity levels of plant damage (i.e., growth control rate) are as follows: • Level 9: completely dead; • Level 8: growth control rate greater than or equal to 90% and less than 100%; • Level 7: growth control rate greater than or equal to 80% and less than 90%; • Level 6: growth control rate greater than or equal to 70% and less than 80%; • Level 5: growth control rate greater than or equal to 50% and less than 70%; • Level 4: growth control rate greater than or equal to 30% and less than 50%; • Level 3: growth control rate greater than or equal to 20% and less than 30%; • Level 2: growth control rate greater than or equal to 10% and less than 20%; • Level 1: growth control rate less than 10%; • Level 0: no effect.
(§2) The above growth control rates are fresh weight control rates.
Monocotyledonous and dicotyledonous weed seeds as well as major crop seeds were placed in plastic pots filled with soil and then covered with 0.5-2 cm of soil to allow them grow in a favorable greenhouse environment. Two weeks after sowing, the test plants were treated. The test compounds of the present invention were individually dissolved with acetone, then added with Tween® 80 and the emulsifiable concentrate of methyl oleate as a synergist, diluted with certain amount of water to obtain solutions of certain concentrations, and sprayed to the plants using a spray tower. After drug application, the experimental results on weeds were collected after 3 weeks of cultivation in a greenhouse. Table 2 Results of post-emergence test on weeds

[2] = system: Monocotyledonous and dicotyledonous weed; assay: Pre-emergence test on weeds (greenhouse, sprayed immediately after sowing); conditions: fresh weight control rate; for activity level of plant damage (growth control rate), Triticum aestivum: crop Triticum aestivum; for activity level of plant damage (growth control rate), Descurainia sophia / activity level of plant damage (growth control rate), Digitaria sanguinalis / activity level of plant damage (growth control rate), Lolium multiflorum / activity level of plant damage (growth control rate), Setaria viridis: Dosage 240 g a.i./ha, after 4 weeks in greenhouse; for activity level of plant damage (growth control rate), Zea mays: crop Zea mays
From the text: as §1, §2
Monocotyledonous and dicotyledonous weed seeds as well as major crop seeds were placed in plastic pots filled with soil and then covered with 0.5-2 cm of soil. The test compounds of the present invention were individually dissolved with acetone, then added with Tween® 80, diluted with certain amount of water to obtain solutions of certain concentrations, and sprayed immediately after sowing. After drug application, the experimental results on weeds were observed after 4 weeks of cultivation in a greenhouse. Table 3 Results of pre-emergence test on weeds

[3] = sprayed immediately after sowing, 240 g a.i./ha, observed after 4 weeks in greenhouse

Structure (SMILES) | Digitaria sanguinalis, activity level of plant damage (growth control rate) ([1]; Dosage 60 g a.i./ha) | activity level (growth control rate), Digitaria sanguinalis [2, 3] | activity level (growth control rate), Setaria viridis [2, 3] | Echinochloa crus-galli, activity level of plant damage (growth control rate) ([1]; Dosage 60 g a.i./ha) | activity level of plant damage (growth control rate), Digitaria sanguinalis [2] | activity level of plant damage (growth control rate), Setaria viridis [2] | Amaranthus retroflexus, activity level of plant damage (growth control rate) ([1]; Dosage 60 g a.i./ha) | other results
C=C(C)[C@]1(C(=O)NCC(=O)NOC)CC(c2cc(Cl)cc(Cl)c2)=NO1 | 6 (Level 6: growth control rate greater than or equal to 70% and less than 80%) | 9 | 9 | – | – | – | – | activity level of plant damage (growth control rate), Triticum aestivum [2, 3]: 0
C=C(C)[C@]1(C(=O)N[C@@H](CC)C(=O)NOCC)CC(c2cc(F)cc(F)c2)=NO1 | 9 | – | – | 6 (Level 6: growth control rate greater than or equal to 70% and less than 80%) | 9 | 9 | – | activity level of plant damage (growth control rate), Descurainia sophia ([2]; Descurainia sophia): 6 (Level 6: growth control rate greater than or equal to 70% and less than 80%); activity level of plant damage (growth control rate), Lolium multiflorum ([2]; Lolium multiflorum): 9
C=C(C)[C@]1(C(=O)N[C@@H](C)C(=O)NOCC(=O)N(C)OC)CC(c2cc(F)cc(F)c2)=NO1 | 8 (Level 8: growth control rate greater than or equal to 90% and less than 100%) | 9 | 9 | 8 (Level 8: growth control rate greater than or equal to 90% and less than 100%) | – | – | – | –
C=C[C@]1(C(=O)N[C@@H](C)C(=O)N(C)OCC(=O)ON=C(C)C)CC(c2cc(F)cc(F)c2)=NO1 | – | – | – | – | – | – | – | Digitaria sanguinalis, activity level of plant damage (growth control rate) ([1]; Dosage 240 g a.i./ha): 5 (Level 5: growth control rate greater than or equal to 50% and less than 70%); Echinochloa crus-galli, activity level of plant damage (growth control rate) ([1]; Dosage 240 g a.i./ha): 6 (Level 6: growth control rate greater than or equal to 70% and less than 80%); activity level (growth control rate), Descurainia sophia ([2]; Descurainia sophia, sprayed immediately after sowing, 240 g a.i./ha, observed after 4 weeks in greenhouse): 9; activity level (growth control rate), Lolium multiflorum ([2]; Lolium multiflorum, sprayed immediately after sowing, 240 g a.i./ha, observed after 4 weeks in greenhouse): 9; activity level of plant damage (growth control rate), Zea mays [2, 3]: 1 (Level 1: growth control rate less than 10%)
C=C(C)[C@]1(C(=O)N[C@@H](C)C(=O)N2CCCCO2)CC(c2cc(Cl)cc(Cl)c2)=NO1 | 9 | – | – | 8 (Level 8: growth control rate greater than or equal to 90% and less than 100%) | 9 | 9 | 8 (Level 8: growth control rate greater than or equal to 90% and less than 100%) | –
C=C(C)[C@]1(C(=O)N[C@@H](C)C(=O)NOCC(N)=O)CC(c2cc(F)cc(F)c2)=NO1 | 8 (Level 8: growth control rate greater than or equal to 90% and less than 100%) | 9 | 9 | 8 (Level 8: growth control rate greater than or equal to 90% and less than 100%) | – | – | 6 (Level 6: growth control rate greater than or equal to 70% and less than 80%) | –
C=C(C)[C@]1(C(=O)NCC(=O)NOCC)CC(c2cc(F)cc(Cl)c2)=NO1 | 8 (Level 8: growth control rate greater than or equal to 90% and less than 100%) | 9 | 9 | 8 (Level 8: growth control rate greater than or equal to 90% and less than 100%) | – | – | 8 (Level 8: growth control rate greater than or equal to 90% and less than 100%) | –
C=C(C)[C@]1(C(=O)N[C@@H](C)C(=O)NOCCCCC)CC(c2cc(F)cc(F)c2)=NO1 | 9 | – | – | 9 | 9 | 9 | – | activity level of plant damage (growth control rate), Descurainia sophia ([2]; Descurainia sophia): 5 (Level 5: growth control rate greater than or equal to 50% and less than 70%); activity level of plant damage (growth control rate), Lolium multiflorum ([2]; Lolium multiflorum): 9
C=C(C)[C@]1(C(=O)N[C@@H](CC)C(=O)NOC)CC(c2cc(Cl)cc(Cl)c2)=NO1 | 8 (Level 8: growth control rate greater than or equal to 90% and less than 100%) | 9 | 9 | 6 (Level 6: growth control rate greater than or equal to 70% and less than 80%) | – | – | – | –
C=C(C)[C@]1(C(=O)N[C@@H](C)C(=O)NOCC)CC(c2cc(F)cc(F)c2)=NO1 | – | – | – | – | 9 | 9 | – | Avena fatua, activity level of plant damage (growth control rate) ([1]; Dosage 240 g a.i./ha): 9; Digitaria sanguinalis, activity level of plant damage (growth control rate) ([1]; Dosage 240 g a.i./ha): 9; Echinochloa crus-galli, activity level of plant damage (growth control rate) ([1]; Dosage 240 g a.i./ha): 9; activity level of plant damage (growth control rate), Lolium multiflorum ([2]; Lolium multiflorum): 9
C=C(C)[C@]1(C(=O)N[C@@H](C)C(=O)NOCCCC2CCCC2)CC(c2cc(F)cc(F)c2)=NO1 | 8 (Level 8: growth control rate greater than or equal to 90% and less than 100%) | 9 | 9 | 8 (Level 8: growth control rate greater than or equal to 90% and less than 100%) | – | – | 6 (Level 6: growth control rate greater than or equal to 70% and less than 80%) | –
C=C(C)[C@]1(C(=O)N[C@@H](C)C(=O)NOC/C=C/Cl)CC(c2cc(F)cc(Cl)c2)=NO1 | 8 (Level 8: growth control rate greater than or equal to 90% and less than 100%) | 9 | 9 | 8 (Level 8: growth control rate greater than or equal to 90% and less than 100%) | – | – | 6 (Level 6: growth control rate greater than or equal to 70% and less than 80%) | –
C=CC1(C(=O)N[C@@H](C)C(=O)N(C)OC)CC(c2cc(F)cc(Cl)c2)=NO1 (stereo partly shown) | – | – | – | – | 7 (Level 7: growth control rate greater than or equal to 80% and less than 90%) | 7 (Level 7: growth control rate greater than or equal to 80% and less than 90%) | – | Avena fatua, activity level of plant damage (growth control rate) ([1]; Dosage 240 g a.i./ha): 9; activity level of plant damage (growth control rate), Lolium multiflorum ([2]; Lolium multiflorum): 7 (Level 7: growth control rate greater than or equal to 80% and less than 90%)
C=C(C)[C@]1(C(=O)N[C@@H](C)C(=O)NOCCCCCCCC)CC(c2cc(Cl)cc(Cl)c2)=NO1 | 8 (Level 8: growth control rate greater than or equal to 90% and less than 100%) | 8 (Level 8: growth control rate greater than or equal to 90% and less than 100%) | 8 (Level 8: growth control rate greater than or equal to 90% and less than 100%) | 8 (Level 8: growth control rate greater than or equal to 90% and less than 100%) | – | – | 8 (Level 8: growth control rate greater than or equal to 90% and less than 100%) | activity level of plant damage (growth control rate), Triticum aestivum [2, 3]: 0; activity level of plant damage (growth control rate), Zea mays [2, 3]: 1 (Level 1: growth control rate less than 10%)
C=C(C)[C@]1(C(=O)N[C@H](C(=O)NOCC)C2CC2)CC(c2cc(F)cc(Cl)c2)=NO1 | 8 (Level 8: growth control rate greater than or equal to 90% and less than 100%) | 9 | 6 (Level 6: growth control rate greater than or equal to 70% and less than 80%) | 8 (Level 8: growth control rate greater than or equal to 90% and less than 100%) | – | – | 6 (Level 6: growth control rate greater than or equal to 70% and less than 80%) | –
